{
  "source": "EPA's aquatic toxicity sets",
  "key": {"[1]": {"system": "Daphnia magna", "test": "48 h LC50 (-log10 mol/L); higher = more toxic"}, "[2]": {"system": "Pimephales promelas", "test": "96 h LC50 (-log10 mol/L); higher = more toxic"}, "[3]": {"system": "Tetrahymena pyriformis", "test": "48 h IGC50 (-log10 mol/L); higher = more toxic"}},
  "data": [
    {"smiles": "CCCCOCCCC", "values": [
      {"measurement": "48 h LC50 (-log10 mol/L)", "setting": "[1]", "value": 3.7}
    ]},
    {"smiles": "c1ccc2cccc-2cc1", "values": [
      {"measurement": "96 h LC50 (-log10 mol/L)", "setting": "[2]", "value": 4.15}
    ]},
    {"smiles": "c1ccc(-c2ccccn2)cc1", "values": [
      {"measurement": "48 h IGC50 (-log10 mol/L)", "setting": "[3]", "value": 3.27}
    ]}
  ]
}
